Article PMC8143797

Amino acid sequences for entries named in this document (tags omitted).
UniProt P28347, whole entry: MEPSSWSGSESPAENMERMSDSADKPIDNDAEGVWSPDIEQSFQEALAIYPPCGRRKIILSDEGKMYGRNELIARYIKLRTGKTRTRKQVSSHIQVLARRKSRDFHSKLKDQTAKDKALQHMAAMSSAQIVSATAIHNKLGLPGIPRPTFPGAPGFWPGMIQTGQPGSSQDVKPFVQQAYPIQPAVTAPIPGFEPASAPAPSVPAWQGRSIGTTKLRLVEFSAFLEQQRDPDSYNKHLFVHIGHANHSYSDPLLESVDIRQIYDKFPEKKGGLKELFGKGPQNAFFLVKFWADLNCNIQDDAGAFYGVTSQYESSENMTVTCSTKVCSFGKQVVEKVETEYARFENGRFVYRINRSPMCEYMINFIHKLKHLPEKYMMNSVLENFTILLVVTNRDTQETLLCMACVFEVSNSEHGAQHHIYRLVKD

Biological target: 3HA-TEAD1 (human) (UniProt P28347)

quantitative RT-PCR, expression of Ccn2(Ctgf), a YAP target gene, in NIH 3T3 cells, YAP-TFE3 S94A compared to the YAP-TFE3 control (fold decrease): 7
Substance: Double Flag YAP-TFE3 S94A
